The test has as its target PDZ1/2 domain. In words: SPR, Biacore 3000; PDZ1/2 amine-coupled to the chip, peptide as analyte, 1:1 binding model. On the technique in general: SPR reads the build-up and loss of mass on a sensor chip optically.

In patent US20190134143A1 one finds Kd data, which are given here for one molecule.

B1: chimeric peptide P5 (peptide)
peptide: YGRKKRRQRRRYEKLLDTEI
modifications: not checked
The Kd is the free concentration of one partner at which half of the binding sites on the other are occupied at equilibrium, for simple one-to-one binding. A high value points to weaker binding. Take B1: the Kd was 29.9 nM.
